Sequences of proteins named here, by UniProt entry; tags and fusion partners are left off.
Pyruvate kinase PKM (Homo sapiens), P14618, UniProt P14618, whole entry, looked up: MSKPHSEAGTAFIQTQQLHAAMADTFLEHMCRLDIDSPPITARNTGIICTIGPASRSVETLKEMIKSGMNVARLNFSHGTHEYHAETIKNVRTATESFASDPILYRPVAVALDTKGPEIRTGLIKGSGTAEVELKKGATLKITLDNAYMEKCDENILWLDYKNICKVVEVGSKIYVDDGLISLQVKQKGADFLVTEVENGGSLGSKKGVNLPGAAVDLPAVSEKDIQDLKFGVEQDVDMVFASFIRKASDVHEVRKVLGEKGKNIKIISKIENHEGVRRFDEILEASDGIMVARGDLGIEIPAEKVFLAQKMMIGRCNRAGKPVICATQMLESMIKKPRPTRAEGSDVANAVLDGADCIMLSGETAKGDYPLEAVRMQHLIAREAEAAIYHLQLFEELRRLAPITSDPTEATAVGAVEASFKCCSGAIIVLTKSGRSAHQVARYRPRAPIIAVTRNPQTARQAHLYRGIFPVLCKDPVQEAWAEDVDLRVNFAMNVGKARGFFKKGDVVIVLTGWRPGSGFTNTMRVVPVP
Importin subunit beta-1 (Homo sapiens), Q14974, UniProt Q14974, whole entry, looked up: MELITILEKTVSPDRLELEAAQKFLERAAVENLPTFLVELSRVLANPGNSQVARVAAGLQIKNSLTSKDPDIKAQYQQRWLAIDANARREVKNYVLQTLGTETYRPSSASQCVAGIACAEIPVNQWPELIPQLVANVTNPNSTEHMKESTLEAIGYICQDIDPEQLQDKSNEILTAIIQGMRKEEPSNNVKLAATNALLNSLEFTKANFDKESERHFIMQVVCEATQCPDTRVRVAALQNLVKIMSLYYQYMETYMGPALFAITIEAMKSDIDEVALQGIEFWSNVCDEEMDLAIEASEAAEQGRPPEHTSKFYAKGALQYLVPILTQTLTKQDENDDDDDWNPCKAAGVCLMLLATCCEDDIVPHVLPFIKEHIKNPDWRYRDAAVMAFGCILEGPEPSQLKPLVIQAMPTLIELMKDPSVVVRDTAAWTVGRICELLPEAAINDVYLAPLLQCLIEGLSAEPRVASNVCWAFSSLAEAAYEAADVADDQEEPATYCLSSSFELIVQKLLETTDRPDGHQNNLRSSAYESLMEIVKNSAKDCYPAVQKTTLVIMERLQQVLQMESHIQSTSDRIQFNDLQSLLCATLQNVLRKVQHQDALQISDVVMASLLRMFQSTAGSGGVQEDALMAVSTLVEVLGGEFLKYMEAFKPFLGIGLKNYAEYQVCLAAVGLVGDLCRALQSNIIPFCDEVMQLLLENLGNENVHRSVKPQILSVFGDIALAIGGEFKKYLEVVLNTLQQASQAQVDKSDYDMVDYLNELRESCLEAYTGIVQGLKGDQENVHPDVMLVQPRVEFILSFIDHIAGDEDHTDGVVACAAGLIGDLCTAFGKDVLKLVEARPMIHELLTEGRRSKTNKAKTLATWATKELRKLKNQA

# PKM2 activator: qHTS Assay for Activators of Human Muscle isoform 2 Pyruvate Kinase; AID 1631, 2009; purified PKM2, Kinase-Glo ATP luminescence, activation; response scale: 0% is enzyme alone, no compound; Potency, µM (series often up to 57.5 µM), inactives show at the highest dose activation, usual class: activators; 0.34% of 260,000 active; Pyruvate kinase PKM (Homo sapiens), P14618; also: % is scaled to controls: 0 for no effect and ±100 for the full control effect; nearly all actives have a fitted effect of over 55% in size
#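 ATP formation by purified human PK-M2, quantified via coupled luciferase luminescence after 1 h at room temperature with 0.1 mM ADP and 0.5 mM PEP final.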
# Rango dissoc inh: qHTS Assay for Inhibitors of RanGTP induced Rango (Ran-regulated importin-beta cargo) - Importin beta complex dissociation; Snurportin-1 (Homo sapiens) + GTP-binding nuclear protein Ran (Homo sapiens) + Importin …; Biochemical FRET Rango-importin beta, RanGTP-induced dissociation; Potency, µM (titrated, usually from 46.1 µM), without a hit: top-dose activity change, negative = inhibition; 0.071% of 340,000 active; AID 540253, 2011; calls by dose curve; also: % of control where 0% means no effect; nearly all actives have a fitted effect of over 45% in size
#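 Rango (0.1 uM)–importin beta (0.25 uM) complex; RanGTP-RCC1 trigger; 45 min RT; CFP/YFP FRET read.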
# Tb PGK inh: qHTS Assay to Find Inhibitors of Phosphoglycerate Kinase. PGK/GAPDH coupled, Kinase-Glo luminescence, 60 min. Potency, µM (highest dose often 57.5 µM), for the others: top-dose activity change, negative = inhibition, most hits filed as inhibitors. 0.043% of 380,000 active. AID 602233, 2012; also: % is scaled to controls: 0 for no effect and ±100 for the full control effect; nearly all actives have a fitted effect of over 60% in size
#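 Recombinant glycosomal PGK reaction used 1,3-bisphosphoglycerate generated in-well by GAPDH (100nM final) in 100mM TEA pH 7.6, 5mM MgCl2, 0.01% Tween-20. After 60 minutes at room temperature, ATP was read by Kinase-Glo Plus luminescence end-point.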
# ELG1 repair inh: qHTS screen for small molecules that inhibit ELG1-dependent DNA repair in human embryonic kidney (HEK293T) cells expressing luciferase-tagged ELG1. Potency, µM (doses to about 46.1 µM), inactives show at the highest dose activity change, negative = inhibition, actives largely listed as inhibitors. HEK293T ELG1-luciferase reporter, luminescence, 16 h; DNA damage induced by 5-fluorouridine. 2.3% of 330,000 active. AID 504467, 2011; also: % is scaled to controls: 0 for no effect and ±100 for the full control effect; nearly all actives have a fitted effect of over 55% in size
#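 HEK293T cells expressing luciferase-tagged ELG1 (2,000/well) received 5-Fluorouridine plus compound or DMSO for 16 hr at 37 °C. Luciferase was read by ONE-Glo luminescence after 30 min at room temperature.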
# Rango-impB inh: qHTS Assay for Inhibitors of Rango (Ran-regulated importin-beta cargo) - Importin beta complex formation; Importin subunit beta-1 (Homo sapiens), Q14974; Rango CFP/YFP FRET sensor + importin beta, 45 min; Potency, µM (series often up to 92.2 µM), for inactives: top-dose inhibition of complex formation; 0.031% of 340,000 active; AID 540263, 2011; calls by dose curve;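 also: 0% = DMSO wells and 100% = buffer wells lacking importin beta; nearly all actives have a fitted effect of over 15% in size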
#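 FRET biosensor (snurportin 1 IBB flanked by EYFP and cerulean), 50 nM, with compound 5 min, then 0.125 microM importin beta in PBS, 1 mM DTT, 0.02% Tween-20, 0.1% BSA. CFP/YFP ratio read after 45 min at room temperature; pre-read flags interference.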
# Tb PFK block: qHTS Assay to Find Inhibitors of T. brucei phosphofructokinase. ATP-dependent 6-phosphofructokinase (Trypanosoma brucei brucei), O15648. Potency, µM (top dose mostly 57.5 µM), for inactives: top-dose activity, negative = inhibition, most hits filed as inhibitors. 0.17% of 330,000 active. T. brucei PFK, ADP-Glo luminescence;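 also: 0% = uninhibited 1x PFK enzyme wells and -100% = no-enzyme wells; nearly all actives have a fitted effect of over 60% in size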
#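 PFK 1.25 nM, F6P 0.5 mM, ATP 0.1 mM, 0.1 M TEA pH 8.0, 5 mM MgCl2, 0.01% Tween20, 0.1% BSA; 45 min RT. ADP-Glo readout. qHTS titration up to 57 uM; curves fitted, compounds curve-classed.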
# The depositor's hits bear a star; i = inactive; ? = inconclusive; . = not tested or not shown; [ ] = another dose, or the depositor's remark. Sampled rows, rich in hits. Any-hit rate of the full collection: about 2.4%. Unless noted, calls follow the shape of the dose curve; as a rule, active = well fitted curve in the direction sought with a large enough effect; inconclusive = small, poorly fitted or top-dose-only effect, or another doubt; inactive = no such curve, though single readings can be large; an effect the other way counts as inactive or inconclusive. Potency is read from the fitted curve at half-maximal effect.
SMILES,PKM2 activator,Rango dissoc inh,Tb PGK inh,ELG1 repair inh,Rango-impB inh,Tb PFK block
COc1ccc(OC)c(/C=C/C(=O)OCC(=O)N2C(C)CCCC2C)c1 (stereo not drawn),.,-6%,20%,21µM*,?,8%
COc1ccc(OC)c(/C=C/C(=O)OCC(=O)N2CCCC2)c1,.,-17%,-7%,1%,-6%,5%
COc1ccc2c(c1)-c1c(ssc1=S)C(C)(C)N2,-12%,16%,-6%,2.6µM*,3%,-6%
COCCSc1ccccc1C(=O)Nc1cc(C)on1,32µM*,1%,.,?,0%,-10%
COc1ccc(-c2csc(N(CCCN3CCOCC3)C(=O)c3ccco3)n2)cc1,0%,14%,i,16µM*,2%,-4%
COc1ccc(-c2csc(N(CC3CCCO3)C(=O)c3ccccc3)n2)cc1 (stereo not drawn),2%,-23%,-8%,8.2µM*,0%,0%
COc1ccc(-c2csc(N(CC3CCCO3)C(=O)c3ccc(C)cc3)n2)cc1 (stereo not drawn),3%,-4%,0%,?,-4%,2%
COc1ccc(OC)c(-c2csc(N(Cc3ccco3)C(=O)c3ccco3)n2)c1,6%,0%,-4%,18µM*,-1%,-2%
COc1ccc(CC2(CO)CCN(S(=O)(=O)c3sccc3C)CC2)cc1,-6%,1%,i,18µM*,-4%,-8%
COc1ccc(CC2(CO)CCN(S(=O)(=O)c3c(C)nn(C)c3Cl)CC2)cc1,-7%,-3%,i,?,-2%,-9%
CCC1=C2CC[C@H]3C(=O)N(c4ccccc4)C(=O)[C@H]3[C@H]2[C@@]2(C)C(=O)N(Cc3ccccc3)C(=O)N2C1=O,0%,.,.,.,.,.
Cc1c(C)n(CCCN(C)C)c2ncnc(Nc3ccc(F)cc3)c12,.,0%,-6%,20%,1%,-21%
CCn1c(CSc2nnc(-c3ccc4c(c3)OCO4)o2)nc2cc(S(=O)(=O)N(C)C)ccc21,1%,-2%,-2%,15µM*,?,-3%
CCn1c(CSc2nnc(C)n2-c2ccccc2)nc2cc(S(=O)(=O)N(C)C)ccc21,-4%,-1%,i,0%,4%,-3%
COc1ccc(C(=O)Nc2nc3n(n2)C(c2ccc(Cl)cc2)C=C(c2ccccc2)N3)cc1OC (stereo not drawn),.,.,9%,.,.,.
Cc1cc(C)nc(-n2nc(C)cc2NC(=O)CN2CCCC(C)C2)n1 (stereo not drawn),2%,3%,2%[11.5 µM],-11%,-2%,-3%
Cc1cc(C)nc(-n2nc(C)cc2NC(=O)CN2CCc3ccccc3C2)n1,2%,2%,.,3.7µM*,-6%,4%
CCN(CC(=O)Nc1cc(C)nn1-c1nc(C)cc(C)n1)Cc1ccccc1,-5%,-7%,-6%,18µM*,-2%,-1%
S=C(NCc1ccco1)N1CCC(c2nc3ccccc3o2)CC1,7%,0%,1%,?,0%,0%
CCC1=NN2C(=N)/C(=C\c3cccn3-c3ccc(Cl)cc3)C(=O)N=C2S1,6%,-2%,0%,?,3%,1%
CCC1=NN2C(=N)/C(=C\c3cccn3-c3ccc(C)c(C)c3)C(=O)N=C2S1,0%,-9%,-6%,18µM*,-1%,-1%
Cc1cc(C)cc(NS(=O)(=O)c2ccc3c(c2)c(=O)n(C)c(=O)n3C)c1,?,9%,6%[11.5 µM],?,-2%,3%
Cc1ccc(NS(=O)(=O)c2ccc3c(c2)c(=O)n(C)c(=O)n3C)cc1F,4.5µM*,20%,-3%,?,0%,0%
C/C(=N\Nc1cc(N2CCCCC2)nc(C)n1)c1ccc(Br)cc1,-1%[11.5 µM],7%,2%,16µM*,1%,1%
C/C(=N\Nc1cc(N2CCOCC2)nc(C)n1)c1ccc(F)cc1,0%,?,i,?,7%,6%
COc1ccc(CNC(=O)c2cnc3ccc(C)cn3c2=O)cc1,.,.,-12%,.,.,.
c1ccc(-[n+]2nc(Nc3cccc4ccccc34)sc2-c2c3ccccc3cc3ccccc23)cc1,.,-6%,-9%,-12%,1%,1%
Fc1ccc(-[n+]2nc(Nc3ccccc3)sc2-c2c3ccccc3cc3ccccc23)cc1,0%,-3%,i,4.6µM*,0%,2%
Oc1ccc(-c2sc(Nc3ccccc3)n[n+]2-c2ccc(F)cc2)cc1,-8%,-3%,i,38%,1%,7%
Oc1ccc2ccccc2c1-c1sc(Nc2ccccc2)n[n+]1-c1ccc(F)cc1,6%,1%,-1%,16%,52µM*,-2%

# In the list so far, these have a furan ring, fused or not.
SMILES,PKM2 activator,Rango dissoc inh,Tb PGK inh,ELG1 repair inh,Rango-impB inh,Tb PFK block
COc1ccc(-c2csc(N(CCCN3CCOCC3)C(=O)c3ccco3)n2)cc1,0%,14%,i,16µM*,2%,-4%
COc1ccc(OC)c(-c2csc(N(Cc3ccco3)C(=O)c3ccco3)n2)c1,6%,0%,-4%,18µM*,-1%,-2%
S=C(NCc1ccco1)N1CCC(c2nc3ccccc3o2)CC1,7%,0%,1%,?,0%,0%

# The results go on.
SMILES,PKM2 activator,Rango dissoc inh,Tb PGK inh,ELG1 repair inh,Rango-impB inh,Tb PFK block
O=C(Cn1nc2sc3ccccc3n2c(=O)c1=O)c1ccc(Cl)cc1,0%,-13%,-1%,26%,4%,1%
Cc1cc(C)cc(NC(=O)Cn2cc(C(=O)c3cccs3)c3ccccc32)c1,.,.,i,.,.,.
Cc1ccc(CNC(=O)[C@H](C)[C@@H]2C[C@@]2(C)[C@@H](NC(=O)OCc2ccccc2)c2ccccc2)o1,21%,.,.,.,.,.
O=C(NCCS(=O)(=O)N1CCN(c2ccccc2F)CC1)c1c(F)cccc1F,.,2%,2%,-12%,4%,1%
Cc1ccc(C(=O)NCCS(=O)(=O)N2CCN(c3ccccc3F)CC2)cc1[N+](=O)[O-],-1%,-9%,7%,21µM*,-3%,-6%
O=C(NCCS(=O)(=O)N1CCN(c2ccccc2F)CC1)c1ccc(Cl)cc1,.,16%,6%,-10%,-2%,-5%
Cc1c(C(=O)NCCS(=O)(=O)N2CCN(c3ccccc3F)CC2)cccc1[N+](=O)[O-],-1%,2%,5%,15µM*,2%,-5%
CCOC(=O)CC(NS(=O)(=O)c1cc(-c2cc(C)no2)ccc1C)c1ccc(C)cc1 (stereo not drawn),.,.,-6%,.,.,.
COCCN(Cc1ccccc1)C(=O)c1cccc(S(=O)(=O)N2CCN(c3ccccc3)CC2)c1,.,-5%,-4%,15µM*,?,6%

# Molecules above containing a thiophene ring, fused or not, in the order listed:
SMILES,PKM2 activator,Rango dissoc inh,Tb PGK inh,ELG1 repair inh,Rango-impB inh,Tb PFK block
COc1ccc(CC2(CO)CCN(S(=O)(=O)c3sccc3C)CC2)cc1,-6%,1%,i,18µM*,-4%,-8%
Cc1cc(C)cc(NC(=O)Cn2cc(C(=O)c3cccs3)c3ccccc32)c1,.,.,i,.,.,.
